The structures appear in SMILES notation. Where two headings read alike, the source gives them in different places.

By UniProt entry, the sequences of proteins in these tests, tags left out.
UniProt P21396, whole entry: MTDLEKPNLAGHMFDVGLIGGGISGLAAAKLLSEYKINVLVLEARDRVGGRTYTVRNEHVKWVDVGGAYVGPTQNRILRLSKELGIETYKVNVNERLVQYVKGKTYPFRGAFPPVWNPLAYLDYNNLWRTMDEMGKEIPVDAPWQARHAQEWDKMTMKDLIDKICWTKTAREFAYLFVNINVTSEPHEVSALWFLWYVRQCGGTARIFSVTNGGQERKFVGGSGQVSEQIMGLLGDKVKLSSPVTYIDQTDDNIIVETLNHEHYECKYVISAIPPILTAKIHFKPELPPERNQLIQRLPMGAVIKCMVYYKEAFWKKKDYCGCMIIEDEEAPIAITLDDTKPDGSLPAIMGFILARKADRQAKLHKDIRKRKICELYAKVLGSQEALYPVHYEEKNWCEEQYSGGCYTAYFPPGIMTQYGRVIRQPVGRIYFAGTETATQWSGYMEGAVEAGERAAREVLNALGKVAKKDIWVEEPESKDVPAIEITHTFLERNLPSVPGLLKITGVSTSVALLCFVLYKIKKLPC
UniProt P19643, whole entry: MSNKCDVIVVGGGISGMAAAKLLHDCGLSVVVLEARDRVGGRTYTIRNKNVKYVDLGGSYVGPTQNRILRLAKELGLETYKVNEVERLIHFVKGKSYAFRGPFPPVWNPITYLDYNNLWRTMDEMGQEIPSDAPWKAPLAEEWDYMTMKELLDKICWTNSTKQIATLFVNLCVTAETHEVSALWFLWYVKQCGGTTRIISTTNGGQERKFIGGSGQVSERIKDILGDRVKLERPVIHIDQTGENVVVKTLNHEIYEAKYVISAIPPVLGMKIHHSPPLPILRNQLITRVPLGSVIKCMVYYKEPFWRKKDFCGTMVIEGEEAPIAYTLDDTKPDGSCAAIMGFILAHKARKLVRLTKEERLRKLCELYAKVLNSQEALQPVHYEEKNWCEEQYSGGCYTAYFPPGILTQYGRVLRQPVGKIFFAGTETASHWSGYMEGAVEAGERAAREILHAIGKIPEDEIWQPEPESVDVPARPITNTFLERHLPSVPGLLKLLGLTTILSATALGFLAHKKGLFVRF

This note sets out measurements from patent US9308182B2 (TEVA PHARMACEUTICAL INDUSTRIES, LTD., priority 2012, dated 2016).

One assay addresses MAO-A (Rattus norvegicus, UniProt P21396). Description: in vivo. The note with it: po. An excerpt:
(§1) ALZET® osmotic minipumps are described in Perkins L, Peer C, and Murphy-Hackley P. “Chapter 21: The use of mini-osmotic pumps in continuous infusion studies” in Handbook of Pre-Clinical Continuous Intravenous Infusion, (Smith & Healing, eds., Taylor and Francis, 2000), the contents of which are incorporated herein by reference.
(§2) The osmotic minipumps were inserted subcutaneously with a single surgical procedure: after clipping the fur from the dorsal area and cleaning the skin with antiseptic skin preparation, about 1 cm long incision was made on the dorsum of the animal, midway between both scappulae. The pump was placed along the axis of the body to one side of the backbone. The incision was positioned about 1-2 cm caudal to the estimated caudal end of the minipump when it is in place.
(§3) After two weeks of treatment the animals were sacrificed. From each rat, brain (half) and a part of liver were dissected and frozen. The intestine was excised about ½ cm below the stomach about 1-2 cm long, washed with sucrose 0.32 Molar and frozen at −70° C.
(§4) Tissue homogenates were pre incubated (37° C.) in the presence of clorgyline or deprenyl to inhibit the activity of MAO-A or MAO-B respectively. For MAO-B determination, samples were incubated for 20 minutes with C^14 PEA 10 μM and for MAO-A determination samples were incubated 30 minutes with C^14 −5HT 100 μM as substrate Termination of the reaction was done by acidification. The labeled metabolites were extracted into toluene:ethyl acetate, and counted in a β counter.

The target of another assay is MAO-B (Rattus norvegicus, UniProt P19643). Put plainly: in vivo.
From the text: as §1, §2, §3, §4

The mark [1] stands for this setting: read-out: Percent of MAO-A inhibition, intestine.
Setting [2] is: rat, po, read-out: Percent of MAO-B inhibition, brain.
Setting [3] is: rat, po, read-out: Percent of MAO-B inhibition, liver.
[4] abbreviates: rat, sc, read-out: Percent of MAO-B inhibition, brain.
[5] abbreviates: rat, sc, read-out: Percent of MAO-B inhibition, liver.

The term inhibition denotes the relative decrease from the control value, in per cent. `C#CCN[C@@H]1CCc2ccccc21` [rasagiline, R(+)-N-propargyl-l-aminoindan]: at MAO-A (setting [1]), the inhibition at 0.05 mg/kg/day was found to be 29% and the inhibition at 0.4 mg/kg/day amounted to 67%. At MAO-A (read-out: Percent of MAO-A inhibition, liver), the inhibition at 0.4 mg/kg/day was found to be 54%. Besides, the “MAO-B activity, brain” value at MAO-B (brain, sc ALZET pumps, 0.8 mg/kg/day (salt), two weeks) is reported as 12 dpm. The “MAO-B activity, liver” value at MAO-B (liver, oral, 0.8 mg/kg/day (salt), two weeks) is reported as −5 dpm. On MAO-B (setting [2]), the inhibition at 0.05 mg/kg/day is 95%, the inhibition at 0.1 mg/kg/day amounted to 98% and the inhibition at 0.2 mg/kg/day came to 99%. Moreover, on MAO-B (setting [3]), the inhibition at 0.1 mg/kg/day turned out to be 97%, the inhibition at 0.2 mg/kg/day is 98% and the inhibition at 0.4 mg/kg/day was determined as 99%. Besides, at MAO-B (setting [4]), the inhibition at 0.02 mg/kg/day was 88%, the inhibition at 0.05 mg/kg/day was 97%, the inhibition at 0.1 mg/kg/day was 98% and the inhibition at 0.2 mg/kg/day was 99%. Besides, on MAO-B (setting [5]), the inhibition at 0.2 mg/kg/day amounted to 95%, the inhibition at 0.4 mg/kg/day was determined as 97% and the inhibition at 0.8 mg/kg/day amounted to 97%.
